Measurements published in PubChem BioAssay AID2546 (National Center for Advancing Translational Sciences (NCATS), 2010).
The list shows a part of the results, in another mix than the full data. Inconclusive results are not listed. Where a call stands in place of a potency, no number is given. Active and inactive are the calls of the source. Calls follow the shape of the dose curve; as a rule, active = well fitted inhibition curve with a large enough effect; inconclusive = small, poorly fitted or top-dose-only effect, or effect the other way; inactive = flat fitted curve, though single readings scatter.
Potency is read from the fitted curve at half-maximal effect.

Experiment: VP16 counterscreen qHTS for inhibitors of ROR gamma transcriptional activity;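 also: Gal4-VP16 expression switched on by copper sulfate through the metallothionein promoter; nearly all actives have a fitted effect of over 50% in size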
Conditions: Drosophila S2 Gal4-VP16 UAS-luciferase, luminescence, 20 h; series mostly up to 53.6 µM
For `Cc1cc(C)cc(OP(C)(=O)Nc2cccc(C(F)(F)F)c2)c1` (stereo not drawn), the activity, negative = inhibition was “inactive”.
In the case of `COc1ccc(OP(C)(=O)Nc2ccccc2Br)cc1` (stereo not drawn), the activity, negative = inhibition was “inactive”.
For `COc1ccccc1OP(C)(=O)Nc1ccc(C)c(C)c1` (stereo not drawn), the activity, negative = inhibition was “inactive”.
For `CP(=O)(Nc1ccc(Cl)cc1Cl)Oc1ccccc1` (stereo not drawn), the activity, negative = inhibition was “inactive”.
For `CP(=O)(OCCOc1ccccc1)OCCOc1ccccc1`, the activity, negative = inhibition was “inactive”.
In the case of `COc1ccccc1OP(C)(=O)Nc1ccc(Br)cc1` (stereo not drawn), the activity, negative = inhibition was “inactive”.
In the case of `CN(C)CCOC(=O)C(O)(c1ccccc1)C1CCCC1` (stereo not drawn), the activity, negative = inhibition was “inactive”.
In the case of `COc1ccc(OP(C)(=O)Nc2ccccn2)cc1` (stereo not drawn), the activity, negative = inhibition was “inactive”.
In the case of `Cc1c(NP(C)(=O)Oc2ccc(C(C)C)cc2)c(=O)n(-c2ccccc2)n1C` (stereo not drawn), the activity, negative = inhibition was “inactive”.
With `CCc1ccc(OP(C)(=O)O)cc1` the activity, negative = inhibition was “inactive”.
In the case of `COc1ccccc1OP(C)(=O)Nc1ccc(C)cc1C` (stereo not drawn), the activity, negative = inhibition was “inactive”.
With `COc1ccc(OP(C)(=O)Nc2ccc(Br)cc2)cc1` (stereo not drawn) the activity, negative = inhibition was “inactive”.
With `CCN(CC)CC(O)COC(=O)C(O)(c1ccccc1)C1CCCCC1` (stereo not drawn) the activity, negative = inhibition was “inactive”.
With `CCc1ccc(OP(C)(=O)Nc2cccnc2)cc1` (stereo not drawn) the activity, negative = inhibition was “inactive”.
With `CP(=O)(Oc1ccccc1)N1CCOC1=O` (stereo not drawn) the activity, negative = inhibition was “inactive”.
For `OCCSCCO`, the activity, negative = inhibition was “inactive”.
In the case of `O=C(OCCCN1CCCC1)C(O)(c1ccccc1)C1CCCCC1` (stereo not drawn), the activity, negative = inhibition was “inactive”.
In the case of `COc1ccccc1OP(C)(=O)Nc1c(C)n(C)n(-c2ccccc2)c1=O` (stereo not drawn), the activity, negative = inhibition was “inactive”.
With `CP(=O)(Nc1ccc(Cl)cc1)Oc1ccc(F)cc1` (stereo not drawn) the activity, negative = inhibition was “inactive”.
With `COc1ccccc1OP(C)(=O)Nc1ccccc1Br` (stereo not drawn) the activity, negative = inhibition was “inactive”.
For `CC(C)(C)c1ccc(OP(C)(=O)O)cc1`, the activity, negative = inhibition was “inactive”.
With `CP(=O)(OC12CC3CC(CC(C3)C1)C2)OC12CC3CC(CC(C3)C1)C2` the activity, negative = inhibition was “inactive”.
For `CCOC(=O)c1ccc(NP(C)(=O)Oc2ccc(Cl)cc2)cc1` (stereo not drawn), the activity, negative = inhibition was “inactive”.
In the case of `CC(C)OP(=O)(F)OC(C)C`, the activity, negative = inhibition was “inactive”.
In the case of `C/C1=C2N=C(/C=C3N=C(/C(C)=C4\[N-][C@@](C)([C@H]5N=C1[C@@](C)(CCC(=O)NC[C@H](C)OP(=O)([O-])O[C@@H]1[C@H](O)[C@H](n6cnc7cc(C)c(C)cc76)O[C@@H]1CO)[C@@H]5CC(N)=O)[C@](C)(CC(N)=O)[C@H]4CCC(N)=O)[C@@](C)(CC(N)=O)[C@@H]\3CCC(N)=O)C(C)(C)[C@@H]/2CCC(N)=O.[C-]#N.[Co+3]`, the activity, negative = inhibition was “inactive”.
In the case of `COc1ccc(OP(C)(=O)Nc2cccc(Br)c2)cc1` (stereo not drawn), the activity, negative = inhibition was “inactive”.
For `COc1ccc(NP(C)(=O)Oc2ccccc2OC)cc1` (stereo not drawn), the activity, negative = inhibition was “inactive”.
In the case of `CN(C)CCOC(=O)C(O)(c1ccccc1)C1CCCCC1` (stereo not drawn), the activity, negative = inhibition was “inactive”.
In the case of `Cc1cc(-c2cccc3ccccc23)c(C)cn1.O=[N+]([O-])c1cc([N+](=O)[O-])c(O)c([N+](=O)[O-])c1`, the activity, negative = inhibition was “inactive”.
In the case of `Cc1ccc([N+](=O)[O-])c([N+](=O)[O-])c1`, the activity, negative = inhibition was “inactive”.
In the case of `Cc1c([N+](=O)[O-])cccc1[N+](=O)[O-]`, the activity, negative = inhibition was “inactive”.
For `O=[N+]([O-])c1ccc(OP2(=O)COCCO2)cc1` (stereo not drawn), the activity, negative = inhibition was “inactive”.
With `CP(=O)(Nc1ccc(SC(F)(F)F)cc1)Oc1ccc(F)cc1` (stereo not drawn) the activity, negative = inhibition was “inactive”.
In the case of `CCOP(=O)(CC)OCC`, the activity, negative = inhibition was “inactive”.
For `CCOP(C)(=S)SCC(=O)NC(C)(CC)C(=O)O` (stereo not drawn), the activity, negative = inhibition was “inactive”.
For `CP(=O)(Nc1ccc2c(c1)OCCO2)Oc1ccccc1` (stereo not drawn), the activity, negative = inhibition was “inactive”.
For `[NH4+].[O-][Cl+3]([O-])([O-])[O-]`, the activity, negative = inhibition was “inactive”.
For `CCN(CCCl)Cc1ccccc1C`, the activity, negative = inhibition was “inactive”.
In the case of `CP(=O)(Nc1ccccc1F)Oc1ccccc1` (stereo not drawn), the activity, negative = inhibition was “inactive”.
For `O=C(OCCN1CCN(CCOCc2ccccc2)CC1)C(O)(c1ccccc1)c1ccccc1`, the activity, negative = inhibition was “inactive”.
In the case of `Cc1cccc([N+](=O)[O-])c1[N+](=O)[O-]`, the activity, negative = inhibition was “inactive”.
With `CCC(C)(OO)OOC(C)(CC)OO` (stereo not drawn) the activity, negative = inhibition was “inactive”.
In the case of `COc1ccc(OP(C)(=O)Nc2ccc(SC(F)(F)F)cc2)cc1` (stereo not drawn), the activity, negative = inhibition was “inactive”.
For `CCOC(=O)c1ccc(NP(C)(=O)Oc2ccc(F)cc2)cc1` (stereo not drawn), the activity, negative = inhibition was “inactive”.
With `CCN(CC)CCCOC(=O)C(O)(c1ccccc1)C1CCCCC1` (stereo not drawn) the activity, negative = inhibition was “inactive”.
For `CP(=O)(Nc1ccccc1)Oc1ccc(F)cc1` (stereo not drawn), the activity, negative = inhibition was “inactive”.
For `O=[N+]([O-])c1cccc([N+](=O)[O-])c1`, the activity, negative = inhibition was “inactive”.
In the case of `Cc1ccc([N+](=O)[O-])cc1[N+](=O)[O-]`, the activity, negative = inhibition was “inactive”.
In the case of `O=[N+]([O-])OCC(CO[N+](=O)[O-])(CO[N+](=O)[O-])CO[N+](=O)[O-]`, the activity, negative = inhibition was “inactive”.
In the case of `CC1=NCCc2c1[nH]c1ccccc21.O=[N+]([O-])c1cc([N+](=O)[O-])c(O)c([N+](=O)[O-])c1`, the activity, negative = inhibition was “inactive”.
In the case of `COc1ccccc1OP(C)(=O)Nc1cccc(Br)c1` (stereo not drawn), the activity, negative = inhibition was “inactive”.
For `Cc1cc(C)cc(OP(C)(=O)Nc2ccc(C)cc2C)c1` (stereo not drawn), the activity, negative = inhibition was “inactive”.
In the case of `CCOC(=O)c1ccc(NP(C)(=O)Oc2cc(C)cc(C)c2)cc1` (stereo not drawn), the activity, negative = inhibition was “inactive”.
For `Cc1cc(C)cc(OP(C)(=O)Nc2ccccn2)c1` (stereo not drawn), the activity, negative = inhibition was “inactive”.
With `CP(=O)(Nc1cccc(Br)c1)Oc1ccccc1` (stereo not drawn) the activity, negative = inhibition was “inactive”.
For `Cc1ccc(C)c(NP(C)(=O)Oc2ccccc2)c1` (stereo not drawn), the activity, negative = inhibition was “inactive”.
For `O=[N+]([O-])c1cc([N+](=O)[O-])c(-n2nnc3ccccc32)c([N+](=O)[O-])c1`, the activity, negative = inhibition was “inactive”.
For `CC(C)N(CCCl)C(C)C`, the activity, negative = inhibition was “inactive”.
For `Cc1nc2ccc3ccccc3c2s1.O=[N+]([O-])c1cc([N+](=O)[O-])c(O)c([N+](=O)[O-])c1`, the activity, negative = inhibition was “inactive”.
In the case of `O=[N+]([O-])c1cc([N+](=O)[O-])c(Nc2nnnn2CCO)c([N+](=O)[O-])c1`, the activity, negative = inhibition was “inactive”.
For `COc1ccccc1OP(C)(=O)Nc1c(C)cccc1C` (stereo not drawn), the activity, negative = inhibition was “inactive”.
In the case of `CN1CCCCC1COC(=O)C1(O)c2ccccc2CCc2ccccc21` (stereo not drawn), the activity, negative = inhibition was “inactive”.
With `CCCOc1ccc(NP(C)(=O)Oc2ccc(Cl)cc2)cc1` (stereo not drawn) the activity, negative = inhibition was “inactive”.
In the case of `CP(=O)(Nc1ccc(SC(F)(F)F)cc1)Oc1ccccc1` (stereo not drawn), the activity, negative = inhibition was “inactive”.
For `CP(=S)(Nn1cnnc1)Oc1ccccc1` (stereo not drawn), the activity, negative = inhibition was “inactive”.
In the case of `COc1ccccc1OP(C)(=O)Nc1ccccc1` (stereo not drawn), the activity, negative = inhibition was inactive: -2.07% [at 10 µM].
With `CP(=O)(Nc1ccccc1Br)Oc1ccccc1` (stereo not drawn) the activity, negative = inhibition was “inactive”.
In the case of `CP(=O)(Oc1ccccc1)OC(c1ccccc1)C(F)(F)F` (stereo not drawn), the activity, negative = inhibition was “inactive”.
In the case of `Cc1cccc(C)c1OP(C)(=O)Nc1ccc(SC(F)(F)F)cc1` (stereo not drawn), the Potency was active: 22.4 µM.
With `CP(=O)(Nc1ccc(SC(F)(F)F)cc1)Oc1ccc(Cl)cc1` (stereo not drawn) the activity, negative = inhibition was “inactive”.
With `CP(=O)(NC(=O)Nc1ccccc1)Oc1ccccc1` (stereo not drawn) the activity, negative = inhibition was “inactive”.
For `CCc1ccc(OP(C)(=O)N2CCN(c3ccc([N+](=O)[O-])cc3)CC2)cc1` (stereo not drawn), the activity, negative = inhibition was “inactive”.
For `CCOP(C)(=S)SCC(=O)NC(C)C(=O)O` (stereo not drawn), the activity, negative = inhibition was “inactive”.
With `CN(C)CCS` the activity, negative = inhibition was “inactive”.
With `CCOC(=O)c1ccc(NP(C)(=O)Oc2ccc(OC)cc2)cc1` (stereo not drawn) the activity, negative = inhibition was “inactive”.
For `CP(=O)(Nc1ccccn1)Oc1ccc(Cl)cc1` (stereo not drawn), the activity, negative = inhibition was “inactive”.
In the case of `CCN(CC)CCCOC(=O)C(O)(c1ccccc1)c1ccccc1`, the activity, negative = inhibition was “inactive”.
In the case of `O=[N+]([O-])[O-].[NH4+]`, the activity, negative = inhibition was “inactive”.
For `O=C(O)C1(O)c2ccccc2-c2ccccc21`, the activity, negative = inhibition was “inactive”.
For `Cc1cccc(C)c1OP(C)(N)=O` (stereo not drawn), the activity, negative = inhibition was “inactive”.
For `O=C(O)C(O)(c1ccccc1)c1ccccc1`, the activity, negative = inhibition was “inactive”.
For `O=[N+]([O-])c1ccc2c(c1)C=Nc1ccccc1O2`, the activity, negative = inhibition was “inactive”.
For `CCOC(=O)c1ccc(NP(C)(=O)Oc2ccccc2)cc1` (stereo not drawn), the activity, negative = inhibition was “inactive”.
For `Cc1ccc(NP(C)(=O)Oc2ccccc2)c(C)c1` (stereo not drawn), the activity, negative = inhibition was “inactive”.
For `COc1ccccc1OP(C)(=O)Nc1ccc(C)cc1` (stereo not drawn), the activity, negative = inhibition was “inactive”.
In the case of `COc1ccc(OP(C)(=O)Nc2cccc(F)c2)cc1` (stereo not drawn), the activity, negative = inhibition was “inactive”.
For `COc1ccccc1OP(C)(=O)Nc1cc(Cl)ccc1C` (stereo not drawn), the activity, negative = inhibition was “inactive”.
For `Cc1cc(C)cc(OP(C)(N)=O)c1` (stereo not drawn), the activity, negative = inhibition was “inactive”.
